As usually defined, the IC50 is the concentration that gives 50% inhibition.

The results in this text go back to publication PMC4993559 (Journal of Experimental Pharmacology, 2016).

“And” between values parts separate entries of the source, which are not always exact repeats. Equal entries are not always repeated. A value given as a limit tells only on which side of the number the result lay.

Among the targets are FLT3 (Homo sapiens, UniProt P36888); FLT3 (ITD) (Homo sapiens, UniProt P36888, ITD); FLT3 (D835Y) (Homo sapiens, UniProt P36888, D835Y).
What all share (assay): HotSpot radioisotope filter-binding kinase assay
Common to all, as to assay type: biochemical

Where [1] appears, read: IC50, recombinant kinase, 10 μM ATP.

Turning to `C1=C/COCc2cc(ccc2OCCN2CCCC2)Nc2nccc(n2)-c2cccc(c2)COC/1` [Pacritinib, 11-(2-pyrrolidin-1-yl-ethoxy)-14,19-dioxa-5,7,26-triaza-tetracyclo[19.3.1.1(2,6). 1(8,12)]heptacosa-1(25),2(26),3,5,8,10,12(27),16,21,23-decaene], the IC50 at FLT3 (IC50 (class), Pacritinib scale) was under 25 nM; at FLT3 (setting [1]) it was < 50 nM and 14.8 nM; on FLT3 (ITD) (IC50 (class), Pacritinib scale) it was under 25 nM; on FLT3 (ITD) (setting [1]) it was 13.4 nM; at FLT3 (D835Y) (IC50 (class), Pacritinib scale), under 25 nM; on FLT3 (D835Y) (setting [1]), 4.7 nM.
